Assay [1] in a line: Binding affinity towards sigma receptor in guinea pig cerebral homogenate using [3H]DTG as radioligand.
Assay [2] is described as follows: Binding affinity towards sigma opioid receptor in guinea pig cerebral homogenate using [3H]DTG as radioligand.
A short description of assay [3]: Binding affinity towards sigma opioid receptor was determined in guinea pig cerebral homogenate using [3H]haloperidol as radioligand.

Broadly, the Ki is a measure of affinity in units of concentration, obtained from inhibition or displacement. As for `C[C@H](Cc1ccccc1)NCC#Cc1ccccc1`, the Ki in assay [1] amounted to 97 nM. Turning to `C[C@@H](Cc1ccccc1)N(C)CCc1ccccc1` [Methyl-((S)-1-methyl-2-phenyl-ethyl)-phenethyl-amine], the Ki in assay [2] amounted to 6.6 nM; in assay [3], 4.8 nM.
